Legend:
[1] = Pharmacokinetics of caffeic acid derivatives after oral administration of the FLJ-FF herb couple; assay type: in vivo; details: rats, Table S2
Caco-2 cell = test: In vitro Caco-2 cell transport model; assay type: in vitro ADME, human; details: Shuang-Huang-Lian, with 0.1% (w/v) of COS vs control
[2] = In vivo pharmacokinetic study of FLJ-FF herb couple preparations with or without COS; parameters: species or system rats; details: for AUC (Absorption Enhancer) / AUC (Control): rats; for AUC value increased by: addition of COS 25 mg/kg to rats

Substance: forsythoside B
- AUC0-t [1]: 4292.70 ± 153.20 ng·min/mL
- AUC0-∞ [1]: 4315.40 ± 183.84 ng·min/mL
- Cmax [1]: 51.96 ± 14.52 ng/mL
- MRT0-t [1]: 3.3683 ± 0.9507 h
- T1/2z [1]: 4.0888 ± 0.9253 h
- highest Papp-value increase (Caco-2 cell): 2.43 fold
- AUC (Absorption Enhancer) ([2]; Fufang Qin-Lan Oral Liquid with COS 25 mg/kg): 1868.2 ± 142.50
- AUC (Control) ([2]; Fufang Qin-Lan Oral Liquid, 48 g raw medicine per kilogram): 1416.5 ± 252.44
- AUC value increased by ([2]; Fufang Qin-Lan): 0.32 fold
- AUC (Absorption Enhancer) ([2]; Qin-Re-Jie-Du Oral Liquid with COS 25 mg/kg): 2532.0 ± 183.95
- AUC (Control) ([2]; Qin-Re-Jie-Du Oral Liquid, 160 g raw medicine per kilogram): 1955.0 ± 716.78
- AUC value increased by ([2]; Qin-Re-Jie-Du): 0.30 fold
- AUC (Absorption Enhancer) ([2]; Shuang-Huang-Lian Oral Liquid with COS 25 mg/kg): 14,694 ± 2047.0
- AUC (Control) ([2]; Shuang-Huang-Lian Oral Liquid, 32 g raw medicine per kilogram): 3685.0 ± 328.86
- AUC value increased by ([2]; Shuang-Huang-Lian): 2.99 fold
- AUC (Absorption Enhancer) ([2]; Yin-Qiao-Jie-Du Oral Liquid with COS 25 mg/kg): 12,440 ± 1564.9
- AUC (Control) ([2]; Yin-Qiao-Jie-Du Oral Liquid, 64 g raw medicine per kilogram): 6678.3 ± 850.79
